According to patent US6254882A, “Methods and compositions for treating pulmonary disorders using optically pure (S)--salmeterol” (Sepracor Inc., priority 1997, dated 2001):

Columns and labels:
[1] = tested on: isolated guinea pig right atria; test: Chronotropic effect on isolated guinea pig right atria (atrial rate); parameters: species or system guinea pig (male Hartley); conditions: read-out: EC50 Atrial Rate, determined by linear regression of percent maximum response; % of rate produced by 1 μM forskolin; tested up to 1000 nM; r(log-lin) = 0.9453-0.9968
[2] = tested on: isolated guinea pig tracheal strips; test: Relaxation of histamine-contracted isolated guinea pig tracheal strips; parameters: species or system guinea pig (male Hartley); conditions: read-out: EC50 Tracheal Relaxation, determined by linear regression of percent maximum response; % of maximum relaxation by 1 mM papaverine; tested up to 1000 nM; r(log-lin) = 0.9453-0.9968; (S)-salmeterol extrapolated from three data points

| SMILES | EC50 [1] | EC50 [2] |
| --- | --- | --- |
| COc1ccc(C[C@@H](C)NC[C@H](O)c2ccc(O)c(NC=O)c2)cc1 (relative stereo) | 5.7 nM | 9.4 nM |
| COc1ccc(C[C@H](C)NC[C@@H](O)c2ccc(O)c(NC=O)c2)cc1 | > 10000 nM | 3460 nM |
| COc1ccc(C[C@@H](C)NC[C@H](O)c2ccc(O)c(NC=O)c2)cc1 | 6.3 nM | 2.5 nM |
